The target in the assay is γ-secretase complex containing presenilin-1 (human) (UniProt P49768).

Substance “VIV tripeptide (APP product tripeptide fragment)” had an IC50 of inhibition of γ-secretase activity in vitro (cleavage of C100-FLAG) of 150 µM.

The record behind these values is paper PMC5134833, “The amyloid-beta forming tripeptide cleavage mechanism of γ-secretase” (eLife, 2016).
